Binding of CDR-mutated scFvs to a peptide of the spike HR2 region

All variants were tested on one target, the spike HR2 peptide PDVDLGDISGINAS (SARS-CoV-2).

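The starting antibody came from a phage panning campaign against this peptide. These sequences belong to a second round, designed from the earlier measurements on random variants of the parent. Their group label is 14L_En_Gen (En: ensemble of fine-tuned language models; Gen: genetic algorithm). The assay is AlphaSeq: two haploid yeast populations carry antibody and antigen on their surface. Binding brings cells together so that they mate, and sequencing counts the barcode pairs among the diploids. Read counts were normalised to the haploid input and turned into Kd by a linear fit to BCL2-family pairs of known affinity, for each replicate. Mating was done six times.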

The variants keep the heavy chain, the linker and the frameworks of Ab-14 (scFv order VH, the linker GGGGSGGGGSGGGGS, VL).
VH: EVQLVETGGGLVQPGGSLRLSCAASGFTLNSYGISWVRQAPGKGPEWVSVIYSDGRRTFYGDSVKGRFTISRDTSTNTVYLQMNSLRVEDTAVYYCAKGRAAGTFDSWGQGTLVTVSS
VL: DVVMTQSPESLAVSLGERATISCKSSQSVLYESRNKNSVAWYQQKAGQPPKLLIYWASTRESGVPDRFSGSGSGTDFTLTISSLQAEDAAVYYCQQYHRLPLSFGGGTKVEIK

The parent's light chain CDRs are KSSQSVLYESRNKNSVA, WASTRES, QQYHRLPLS; each variant's own CDRs replace them letter for letter. Numbers give log10(Kd / nM), so 0 is 1 nM and 3 is 1 µM. Smaller is tighter. "n.d." marks a missing value. The strain was present, yet no cells mated with the target were sequenced in that replicate, which points to weak or no binding. As a blank, each scFv also met three strains without target: over all light chain designs, 4% of these pairings were detected, typically at 2.64 and seldom below 1.59. Also given: how often the same scFv was detected with the empty control strains, with their mean in brackets. Values of this round are not directly comparable with the first-round values of the same sequences. The authors' rule: three or more of the six replicates give a measured affinity, fewer mean a poor binder. The parent sequence was in this pool as ten entries: three were never detected, three once, and four in most replicates, with averages from 0.34 to 2.37.

| CDR-L1 | CDR-L2 | CDR-L3 | log10 Kd (nM) by replicate | empty controls |
|---|---|---|---|---|
| KISQMIRVGSTHSNSIA | EEAKRAD | QQYHRLPLA | 1.03 n.d. n.d. 2.55 2.14 2.37 | 0 of 18 |
| KVSEFMRGLMQKTDSIA | DNQTRES | QQYDRLPLS | 2.04 1.35 1.32 1.06 1.64 2.38 | 2 of 18 (2.21) |
| KIGMTLNTLMHQKNNVA | DLVMREK | QQYHRLPLS | 0.60 0.62 0.39 0.43 0.55 0.60 | 0 of 18 |
| MVSQLMLWGLHAKNSIA | EAVMRLN | QQYDRLPLI | n.d. n.d. n.d. n.d. n.d. n.d. | 0 of 18 |
| KLTSVTGTEKVRGNNVA | EMETRER | QQYNRLPLA | 0.19 -0.02 -0.05 0.21 0.18 0.31 | 1 of 18 (2.19) |
| KISQMVRVGSTHMNSIA | EEATRAK | QQYHRLPLA | n.d. 0.05 -0.06 -0.09 0.07 0.61 | 0 of 18 |
| HMSMLTMMGMRQRNSVA | QMTMREN | QQYDRLPLV | n.d. n.d. n.d. n.d. n.d. n.d. | 0 of 18 |
| IVNGVLDHLSKNTNNVA | ETSTRNS | QQYDRLPLS | 0.84 0.93 0.63 0.47 0.56 1.28 | 0 of 18 |
| MISQLYNMGTFAINSVA | QASIRNI | QQYDRLPLI | n.d. n.d. n.d. 2.66 n.d. n.d. | 1 of 18 (3.67) |
| KISQMQRVGSTHHNSIA | EEATRAK | QQYHRLPLF | 2.88 2.38 2.31 2.05 2.75 2.47 | 4 of 18 (2.80) |
| TISQLHNMGQFAINSVA | QASLRNE | QQYDRLPLT | 2.53 2.25 3.93 1.60 2.18 2.28 | 0 of 18 |
| HITYGMQVLGRHSHSIA | QAETREK | QQYDRLPLA | 0.82 0.20 0.67 0.24 0.74 0.65 | 0 of 18 |
| MLSEVLHMLGVAKNSIA | DLVIRAN | QQYHRLPLF | n.d. n.d. n.d. n.d. n.d. n.d. | 0 of 18 |
| MMSQVTGLGQRQRNNVA | QTSTREP | QQYDRLPLI | 0.54 0.75 0.46 0.20 0.75 0.74 | 2 of 18 (1.63) |
| KIGMTLNQMMHKKNNVA | DLVTREN | QQYHRLPLS | 0.96 0.63 0.43 0.81 0.39 0.80 | 1 of 18 (3.11) |
| HMSMLTLQGLRHRNAVA | QMTTREN | QQYDRLPLA | 2.47 1.87 1.38 1.65 1.85 1.96 | 0 of 18 |
| KISMLINQTFQLENNVA | EMVTREK | QQYNRLPLS | n.d. n.d. n.d. n.d. n.d. n.d. | 1 of 18 (1.33) |
| KLGMTAEMELKNRNSVA | ELVTRMS | QQYNRLPLS | 0.81 -0.18 0.37 0.01 1.02 0.90 | 0 of 18 |
| KVSEFMRGLMMRTNSIA | DNNTRQN | QQYDRLPLS | 1.53 1.16 1.16 0.92 1.00 1.11 | 2 of 18 (3.48) |
| KITQTMRFEQKQKNNIA | EVTTRSK | QQYYRLPLS | 1.11 1.13 0.49 1.18 1.30 1.05 | 0 of 18 |
| KLTMVQGTEKVRGNNVA | EMETREN | QQYNRLPLS | 0.29 0.04 0.08 -0.13 -0.10 0.28 | 3 of 18 (2.12) |
| MISNVMNTLSRQGNNVA | DLAERER | QQYFRLPLS | 1.51 1.25 n.d. n.d. 1.66 1.46 | 0 of 18 |
| KISQMVKVGSTLSNSIA | EEVTRAK | QQYHRLPLS | 0.99 1.02 1.02 1.24 0.65 1.18 | 0 of 18 |
| KVSEFTRGLMSRQDSIA | DNVTRNS | QQYDRLPLS | 1.95 n.d. 1.77 2.36 2.62 n.d. | 1 of 18 (2.20) |
| KLSQVTGHMQIEKNNVA | EMETREN | QQYDRLPLS | 0.91 0.85 2.49 0.89 1.09 1.02 | 1 of 18 (1.82) |
| IVSQLMLWGLHAKNSIA | EAETRLN | QQYDRLPLF | 0.95 1.40 1.94 1.44 1.51 1.46 | 3 of 18 (2.74) |
| TISQMTSLFSQSINNVA | EVSTREP | QQYDRLPLV | 0.86 0.56 0.53 0.62 0.56 0.55 | 2 of 18 (3.91) |
| KISQMTRVGATHNNSIA | EEQTRAK | QQYHRLPLA | 0.95 1.43 n.d. n.d. 1.00 2.07 | 0 of 18 |
| MISQLYNMGSFAINSVA | QAQTRNE | QQYDRLPLI | 2.06 2.33 1.84 1.29 1.42 1.16 | 1 of 18 (1.32) |
| KLTMITGLEKVSNNNVA | EMETRER | QQYNRLPLS | 0.00 0.14 -0.15 0.11 0.56 -0.11 | 1 of 18 (2.07) |
| KVSEFMKGLMMRTDSIA | DNETREN | QQYDRLPLS | 1.96 2.34 1.81 n.d. 1.57 2.35 | 0 of 18 |
| MISQLMNMGQFAINSVA | QASERHN | QQYDRLPLM | n.d. 1.01 n.d. n.d. 1.69 1.48 | 0 of 18 |
| TISQVMNTLTRNTNNVA | DLTNRED | QQYFRLPLS | 0.14 -0.07 -0.18 0.06 -0.01 0.05 | 2 of 18 (3.39) |
| QLSGITGHLSAIKNNVA | EMETREN | QQYERLPLS | 0.02 0.00 0.03 -0.09 0.08 0.18 | 0 of 18 |
| MISQLINMGSFAINSVA | QASTRCN | QQYDRLPLM | 1.63 0.61 1.45 2.70 1.04 1.33 | 0 of 18 |
| TISQMTALFSQTINNVA | EVSTREN | QQYDRLPLV | 1.16 0.51 0.96 0.74 0.69 1.25 | 0 of 18 |
| MIYGTQRELGLAANSIA | DNVTRYD | QQYERLPLS | n.d. n.d. 1.70 n.d. n.d. n.d. | 1 of 18 (2.85) |
| MISQLHNMGTFAINSVA | QAELRND | QQYDRLPLT | 1.14 1.30 0.63 1.55 0.76 1.64 | 0 of 18 |
| IVTQLMLWGWHAKNSIA | EAQTRLN | QQYERLPLF | n.d. n.d. n.d. n.d. n.d. n.d. | 0 of 18 |
| MVSQLMVWGLHAKNSIA | EAEHRCN | QQYDRLPLF | n.d. n.d. n.d. n.d. n.d. n.d. | 0 of 18 |
| KLTSTMRFEQKKKNNIA | EVSERSK | QQYFRLPLA | 0.63 1.23 2.03 1.02 1.68 1.27 | 0 of 18 |
| HMSMLTLSGQRHRNAVA | QMTTREN | QQYDRLPLI | n.d. 2.13 1.44 0.98 1.25 2.42 | 0 of 18 |
| KLSMTTEMEHKNRNSVA | ELVTRMN | QQYNRLPLS | 1.03 1.42 0.78 0.73 0.28 1.77 | 0 of 18 |
| TISQVMNTLTRTGNNVA | DLAERES | QQYFRLPLS | 0.63 0.57 0.87 0.66 0.71 0.80 | 1 of 18 (3.68) |
| KLTQTMRFEQKKKNNIA | EVTTRTK | QQYNRLPLA | 3.07 2.38 1.93 4.01 1.86 n.d. | 0 of 18 |
| KISQMQRVGATHSNSIA | EEVTRAK | QQYHRLPLA | 1.27 1.03 1.17 0.84 0.97 1.10 | 2 of 18 (2.10) |
| MMSSLMGYESRHINNVA | QTTTREQ | QQYDRLPLI | -0.69 -0.13 -0.12 -0.51 -0.48 -0.37 | 2 of 18 (2.38) |
| KLTMITGTEKVRGNNVA | EMETREN | QQYNRLPLS | 0.61 0.64 0.41 0.26 0.41 0.36 | 1 of 18 (2.96) |
| KISSMVKVGMTHQNSIA | EEQTRAK | QQYHRLPLA | 0.93 1.58 1.29 1.16 0.60 0.33 | 0 of 18 |
| KIGMTLNQLLQKKNNVA | DLVTREN | QQYHRLPLS | 0.32 0.26 0.27 0.00 0.20 0.46 | 0 of 18 |

For reference, 7 entries of the list once more:

{"CDR-L1": "TISQVMNTLTRTGNNVA", "CDR-L2": "DLAERES", "CDR-L3": "QQYFRLPLS", "log10 Kd (nM) by replicate": "0.63 0.57 0.87 0.66 0.71 0.80", "empty controls": "1 of 18 (3.68)"}
{"CDR-L1": "IVTQLMLWGWHAKNSIA", "CDR-L2": "EAQTRLN", "CDR-L3": "QQYERLPLF", "log10 Kd (nM) by replicate": "n.d. n.d. n.d. n.d. n.d. n.d.", "empty controls": "0 of 18"}
{"CDR-L1": "KLSQVTGHMQIEKNNVA", "CDR-L2": "EMETREN", "CDR-L3": "QQYDRLPLS", "log10 Kd (nM) by replicate": "0.91 0.85 2.49 0.89 1.09 1.02", "empty controls": "1 of 18 (1.82)"}
{"CDR-L1": "KVSEFMRGLMQKTDSIA", "CDR-L2": "DNQTRES", "CDR-L3": "QQYDRLPLS", "log10 Kd (nM) by replicate": "2.04 1.35 1.32 1.06 1.64 2.38", "empty controls": "2 of 18 (2.21)"}
{"CDR-L1": "KLTMITGLEKVSNNNVA", "CDR-L2": "EMETRER", "CDR-L3": "QQYNRLPLS", "log10 Kd (nM) by replicate": "0.00 0.14 -0.15 0.11 0.56 -0.11", "empty controls": "1 of 18 (2.07)"}
{"CDR-L1": "KIGMTLNQLLQKKNNVA", "CDR-L2": "DLVTREN", "CDR-L3": "QQYHRLPLS", "log10 Kd (nM) by replicate": "0.32 0.26 0.27 0.00 0.20 0.46", "empty controls": "0 of 18"}
{"CDR-L1": "KISMLINQTFQLENNVA", "CDR-L2": "EMVTREK", "CDR-L3": "QQYNRLPLS", "log10 Kd (nM) by replicate": "n.d. n.d. n.d. n.d. n.d. n.d.", "empty controls": "1 of 18 (1.33)"}

From the AlphaSeq antibody data of Li et al. 2023 (doi:10.1038/s41467-023-39022-2), copy in the FLAb collection.